Among the data in patent publication US20160213657A1, “PHARMACEUTICAL COMPOSITION FOR TREATMENT AND/OR PREVENTION OF PULMONARY DISEASE” (UBE INDUSTRIES, LTD., priority 2013, published 2016) are Ki values, retold here.

Amino acid sequences for entries named in this document (tags omitted). A change or cut given only in a name is not applied to a line headed by its entry.
UniProt P43116: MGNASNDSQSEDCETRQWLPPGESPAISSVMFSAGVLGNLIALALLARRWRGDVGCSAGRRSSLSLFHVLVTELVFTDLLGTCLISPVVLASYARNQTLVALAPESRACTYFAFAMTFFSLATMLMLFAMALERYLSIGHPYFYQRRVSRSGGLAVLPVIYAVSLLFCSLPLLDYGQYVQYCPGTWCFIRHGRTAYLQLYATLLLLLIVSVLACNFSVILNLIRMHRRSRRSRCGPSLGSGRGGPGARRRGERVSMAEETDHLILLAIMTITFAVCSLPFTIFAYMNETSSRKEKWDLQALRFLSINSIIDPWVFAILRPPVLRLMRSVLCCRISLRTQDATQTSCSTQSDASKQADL

The target of this experiment is human EP2 receptor (Homo sapiens, UniProt P43116). The experiment can be described thus: Measurement of EP2 receptor binding action ([3H]prostaglandin E2 displacement). The conditions noted are these: membrane fraction of HEK293 cells expressing human EP2 receptor; [3H]prostaglandin E2 10 nM; 30° C., 60 minutes. How it is done:
Measurement of EP2 Receptor Binding Action
The membrane fraction was collected on glass fiber filter paper (GF/B, manufactured by Whatman) using a cell harvester (M30R, manufactured by Brandel), and after washing with a buffer solution (10 mM MES-KOH (pH 6.0), 10 mM MgCl2), radioactivity was measured with a liquid scintillation analyzer (2000CA, manufactured by Packard).
Ki=IC50/(1+([^3H]prostaglandin E2 concentration/Kd))
Furthermore, the dissociation constant (Kd value) was calculated by Scatchard analysis.

Compound `CCOc1cccc(-c2ccc(CN(Cc3cccc(NCC(=O)O)n3)S(=O)(=O)c3ccccn3)cc2)n1` [Example 12, (6-{[4-(6-Ethoxypyridin-2-yl)benzyl](pyridin-2-ylsulfonyl)aminomethyl}-pyridin-2-ylamino)acetic acid] showed a Ki of 0.94 nM.
`CCOc1cccc(-c2ccc(CN(Cc3cccc(NCC(=O)O)n3)S(=O)(=O)c3cccs3)cc2)c1` [Example 11, {6-[(3′-Ethoxybiphenyl-4-ylmethyl)(thiophen-2-ylsulfonyl)aminomethyl]-pyridin-2-ylamino}acetic acid]: affinity was put at a Ki of 0.79 nM.

A word on the Ki: it is a dissociation constant, usually derived from enzyme kinetics or from competition with a known ligand.
